Reference: ChEMBL document CHEMBL1149658, “Pyridinylimidazole inhibitors of Tie2 kinase” (Bioorg Med Chem Lett, 2007)

What was measured:
Homo sapiens [1] = species: Homo sapiens; assay: Selectivity of Tie2 over PDGFR1beta
Homo sapiens [2] = species: Homo sapiens; assay: Selectivity of Tie2 over VEGFR3
Homo sapiens [3] = species: Homo sapiens; assay: Selectivity of Tie2 over VEGFR2

Measured: Selectivity ratio

COc1ccc2cc(-c3nc(-c4ccc([S+](C)[O-])cc4)[nH]c3-c3ccncc3)ccc2c1 (stereo not drawn)
> 10: all assays above
